Measurements: patent US11066398B2, “Small molecule c-Myc inhibitors” (THE SCRIPPS RESEARCH INSTITUTE, priority 2013, dated 2021)

Sequences of proteins named here, by UniProt entry; tags and fusion partners are left off.
UniProt P42336, whole entry H1047R: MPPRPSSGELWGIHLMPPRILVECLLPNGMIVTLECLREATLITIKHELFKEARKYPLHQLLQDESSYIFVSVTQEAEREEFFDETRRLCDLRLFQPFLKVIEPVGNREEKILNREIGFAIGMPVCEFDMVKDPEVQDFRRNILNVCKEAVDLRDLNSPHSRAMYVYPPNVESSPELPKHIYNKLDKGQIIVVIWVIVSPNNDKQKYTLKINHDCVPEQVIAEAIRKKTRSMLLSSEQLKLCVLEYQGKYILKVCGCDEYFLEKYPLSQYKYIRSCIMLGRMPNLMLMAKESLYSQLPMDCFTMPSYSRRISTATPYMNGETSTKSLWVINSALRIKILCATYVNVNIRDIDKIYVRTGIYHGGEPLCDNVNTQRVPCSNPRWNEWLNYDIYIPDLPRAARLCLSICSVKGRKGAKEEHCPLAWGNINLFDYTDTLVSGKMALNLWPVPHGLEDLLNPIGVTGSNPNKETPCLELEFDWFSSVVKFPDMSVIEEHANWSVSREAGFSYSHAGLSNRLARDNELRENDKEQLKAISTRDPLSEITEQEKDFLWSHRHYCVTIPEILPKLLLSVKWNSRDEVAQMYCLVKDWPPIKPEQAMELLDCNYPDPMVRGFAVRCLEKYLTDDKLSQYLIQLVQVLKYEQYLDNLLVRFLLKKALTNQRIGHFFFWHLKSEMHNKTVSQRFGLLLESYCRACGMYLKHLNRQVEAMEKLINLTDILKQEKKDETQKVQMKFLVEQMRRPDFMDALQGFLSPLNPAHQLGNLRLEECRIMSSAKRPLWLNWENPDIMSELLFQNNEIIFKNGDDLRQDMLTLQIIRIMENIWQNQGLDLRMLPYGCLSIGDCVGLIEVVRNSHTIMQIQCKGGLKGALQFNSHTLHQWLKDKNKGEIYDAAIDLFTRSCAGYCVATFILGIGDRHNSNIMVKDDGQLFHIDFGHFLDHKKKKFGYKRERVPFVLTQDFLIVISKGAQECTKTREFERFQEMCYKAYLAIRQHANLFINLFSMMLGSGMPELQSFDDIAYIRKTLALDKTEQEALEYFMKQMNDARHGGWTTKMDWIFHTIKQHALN

Target: H1047R mutant of phosphatidylinositol 3-kinase (Homo sapiens, UniProt P42336, H1047R)
Conditions: CEF, dose response

SMILES: NC(=O)c1ccc(-c2cc(-c3ccc([N+](=O)[O-])cc3)nc(-c3ccco3)c2)cc1 [CG-RS-44, 4-(2-(furan-2-yl)-6-(4-nitrophenyl)pyridin-4-yl)benzamide]
- Inhibition of oncogenic transformation by PI3K H1047R: inhibited at significantly higher concentrations
